## CycPeptMPDB entries from one study

Values of Kelly et al. 2021, doi:10.1021/jacs.0c06115, as listed in CycPeptMPDB.

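Lipid, pH, incubation time, direction and concentration are not recorded in the data file. The list need not hold all peptides of the study. Peptides that the database sets to -10, its floor, are left out.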

PAMPA measures passive passage through an artificial lipid membrane.
Permeability is given as log10 of P in cm/s; higher (less negative) is more permeable.

SMILES,PAMPA (log10 cm/s)
CC(=O)N[C@@H]1C(=O)N2CCC[C@H]2C(=O)N(C)[C@H](CC(C)C)C(=O)N(C)[C@@H](CC(C)C)C(=O)N(C)[C@@H](CC(C)C)C(=O)N(C)[C@H](CC(C)C)C(=O)N(C)[C@H](C)C(=O)N[C@@H](CC(C)C)C(=O)N2CCC[C@@H]2C(=O)O[C@@H]1C,-5.10
CC(=O)N1CCC[C@@H]1C(=O)N(C)[C@@H](CC(C)C)C(=O)N[C@@H]1C(=O)N[C@H](CC(C)C)C(=O)N(C)[C@H](CC(C)C)C(=O)N(C)[C@H](CC(C)C)C(=O)N[C@H](C)C(=O)N[C@@H](CC(C)C)C(=O)N2CCC[C@@H]2C(=O)O[C@@H]1C,-5.56
CC(=O)N1CCC[C@H]1C(=O)N(C)[C@H](CC(C)C)C(=O)N[C@@H]1C(=O)N(C)[C@@H](CC(C)C)C(=O)N[C@@H](CC(C)C)C(=O)N(C)[C@H](CC(C)C)C(=O)N(C)[C@@H](C)C(=O)N[C@@H](CC(C)C)C(=O)N2CCC[C@@H]2C(=O)O[C@@H]1C,-5.29
CC(=O)N1CCC[C@H]1C(=O)N(C)[C@H](CC(C)C)C(=O)N[C@@H]1C(=O)N(C)[C@@H](CC(C)C)C(=O)N(C)[C@@H](CC(C)C)C(=O)N(C)[C@H](CC(C)C)C(=O)N(C)[C@@H](C)C(=O)N[C@@H](CC(C)C)C(=O)N2CCC[C@H]2C(=O)O[C@@H]1C,-5.26
CC(=O)N1CCC[C@H]1C(=O)N[C@@H]1C(=O)N(C)[C@H](CC(C)C)C(=O)N(C)[C@@H](CC(C)C)C(=O)N(C)[C@H](CC(C)C)C(=O)N(C)[C@@H](CC(C)C)C(=O)N(C)[C@H](C)C(=O)N[C@@H](CC(C)C)C(=O)N2CCC[C@@H]2C(=O)O[C@@H]1C,-4.91
CC(=O)N1CCC[C@@H]1C(=O)N(C)[C@@H](CC(C)C)C(=O)N[C@@H]1C(=O)N[C@@H](CC(C)C)C(=O)N(C)[C@H](CC(C)C)C(=O)N[C@@H](CC(C)C)C(=O)N[C@@H](C)C(=O)N[C@H](CC(C)C)C(=O)N2CCC[C@H]2C(=O)O[C@@H]1C,-6.36
CC(=O)N1CCC[C@H]1C(=O)N(C)[C@H](CC(C)C)C(=O)N[C@@H]1C(=O)N[C@H](CC(C)C)C(=O)N(C)[C@@H](CC(C)C)C(=O)N[C@@H](CC(C)C)C(=O)N[C@@H](C)C(=O)N[C@H](CC(C)C)C(=O)N2CCC[C@@H]2C(=O)O[C@@H]1C,-5.94
CC(=O)N1CCC[C@H]1C(=O)N(C)[C@H](CC(C)C)C(=O)N[C@@H]1C(=O)N[C@@H](CC(C)C)C(=O)N[C@H](CC(C)C)C(=O)N(C)[C@H](CC(C)C)C(=O)N[C@@H](C)C(=O)N[C@@H](CC(C)C)C(=O)N2CCC[C@H]2C(=O)O[C@@H]1C,-6.83
CC(=O)N1CCC[C@H]1C(=O)N(C)[C@@H](CC(C)C)C(=O)N[C@@H]1C(=O)N(C)[C@H](CC(C)C)C(=O)N(C)[C@H](CC(C)C)C(=O)N(C)[C@@H](CC(C)C)C(=O)N(C)[C@H](C)C(=O)N[C@H](CC(C)C)C(=O)N2CCC[C@H]2C(=O)O[C@@H]1C,-5.10
CC(=O)N1CCC[C@@H]1C(=O)N(C)[C@H](CC(C)C)C(=O)N[C@@H]1C(=O)N[C@H](CC(C)C)C(=O)N(C)[C@@H](CC(C)C)C(=O)N[C@@H](CC(C)C)C(=O)N[C@@H](C)C(=O)N[C@H](CC(C)C)C(=O)N2CCC[C@@H]2C(=O)O[C@@H]1C,-6.53
CC(=O)N1CCC[C@H]1C(=O)N(C)[C@H](CC(C)C)C(=O)N[C@@H]1C(=O)N(C)[C@H](CC(C)C)C(=O)N(C)[C@@H](CC(C)C)C(=O)N(C)[C@H](CC(C)C)C(=O)N(C)[C@H](C)C(=O)N[C@H](CC(C)C)C(=O)N2CCC[C@@H]2C(=O)O[C@@H]1C,-5.03
CC(=O)N1CCC[C@H]1C(=O)N(C)[C@H](CC(C)C)C(=O)N[C@@H]1C(=O)N(C)[C@@H](CC(C)C)C(=O)N[C@@H](CC(C)C)C(=O)N(C)[C@H](CC(C)C)C(=O)N(C)[C@@H](C)C(=O)N[C@H](CC(C)C)C(=O)N2CCC[C@@H]2C(=O)O[C@@H]1C,-5.13
CC(=O)N1CCC[C@@H]1C(=O)N(C)[C@@H](CC(C)C)C(=O)N[C@@H]1C(=O)N[C@@H](CC(C)C)C(=O)N(C)[C@@H](CC(C)C)C(=O)N[C@H](CC(C)C)C(=O)N[C@@H](C)C(=O)N[C@@H](CC(C)C)C(=O)N2CCC[C@@H]2C(=O)O[C@@H]1C,-5.23

The first 2 entries again:

SMILES,PAMPA (log10 cm/s)
CC(=O)N[C@@H]1C(=O)N2CCC[C@H]2C(=O)N(C)[C@H](CC(C)C)C(=O)N(C)[C@@H](CC(C)C)C(=O)N(C)[C@@H](CC(C)C)C(=O)N(C)[C@H](CC(C)C)C(=O)N(C)[C@H](C)C(=O)N[C@@H](CC(C)C)C(=O)N2CCC[C@@H]2C(=O)O[C@@H]1C,-5.10
CC(=O)N1CCC[C@@H]1C(=O)N(C)[C@@H](CC(C)C)C(=O)N[C@@H]1C(=O)N[C@H](CC(C)C)C(=O)N(C)[C@H](CC(C)C)C(=O)N(C)[C@H](CC(C)C)C(=O)N[C@H](C)C(=O)N[C@@H](CC(C)C)C(=O)N2CCC[C@@H]2C(=O)O[C@@H]1C,-5.56